The text below walks through data of ChEMBL document CHEMBL1139291, “Syntheses and opioid receptor binding properties of carboxamido-substituted opioids” (Bioorg Med Chem Lett, 2009).

The chains behind the UniProt entries cited, without tags or fusion partners. Where a name states a change or a piece, a line headed by the entry shows the natural chain unless it says otherwise.
UniProt P35372, whole entry: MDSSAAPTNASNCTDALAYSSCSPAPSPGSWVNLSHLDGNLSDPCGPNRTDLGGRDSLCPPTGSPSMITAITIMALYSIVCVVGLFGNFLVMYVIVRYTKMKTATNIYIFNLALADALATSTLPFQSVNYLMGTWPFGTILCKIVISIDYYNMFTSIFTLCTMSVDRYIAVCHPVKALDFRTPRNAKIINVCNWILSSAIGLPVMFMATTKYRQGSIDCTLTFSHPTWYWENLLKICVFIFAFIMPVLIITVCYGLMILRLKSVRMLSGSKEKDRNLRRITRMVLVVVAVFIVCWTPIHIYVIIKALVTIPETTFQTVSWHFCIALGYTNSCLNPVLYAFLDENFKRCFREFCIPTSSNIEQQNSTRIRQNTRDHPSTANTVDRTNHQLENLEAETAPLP
UniProt P41143, whole entry: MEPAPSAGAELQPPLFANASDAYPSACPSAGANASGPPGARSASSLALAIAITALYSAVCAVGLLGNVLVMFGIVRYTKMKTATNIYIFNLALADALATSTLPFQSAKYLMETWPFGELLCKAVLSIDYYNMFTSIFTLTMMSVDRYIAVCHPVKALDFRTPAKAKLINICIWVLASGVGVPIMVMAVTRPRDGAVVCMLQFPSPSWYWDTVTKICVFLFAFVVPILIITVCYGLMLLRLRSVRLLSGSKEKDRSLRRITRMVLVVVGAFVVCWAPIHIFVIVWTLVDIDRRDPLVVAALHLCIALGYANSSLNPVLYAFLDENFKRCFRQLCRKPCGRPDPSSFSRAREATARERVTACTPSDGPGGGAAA
UniProt P41145: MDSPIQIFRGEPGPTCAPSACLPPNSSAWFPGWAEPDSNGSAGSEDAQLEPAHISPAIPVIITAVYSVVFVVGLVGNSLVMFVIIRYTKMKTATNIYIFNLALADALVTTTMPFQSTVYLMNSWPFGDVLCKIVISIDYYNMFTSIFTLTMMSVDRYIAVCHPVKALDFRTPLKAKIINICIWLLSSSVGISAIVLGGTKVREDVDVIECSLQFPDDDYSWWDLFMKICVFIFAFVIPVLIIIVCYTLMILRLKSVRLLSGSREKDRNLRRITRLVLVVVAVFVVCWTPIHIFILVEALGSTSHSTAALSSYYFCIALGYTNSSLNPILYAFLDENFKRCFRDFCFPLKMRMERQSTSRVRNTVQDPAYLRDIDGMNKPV

The target in one assay is Mu-type opioid receptor (Homo sapiens, UniProt P35372). Nature of the assay: biochemical. The assay is classed as cell-based, CHO.
In assay [1] the target is Delta-type opioid receptor (Homo sapiens, UniProt P41143). Nature of the assay: Displacement of [3H]Naltrindole form human delta opioid receptor expressed in CHO cells. Type of assay: cell-based. A general note: Displacement assays read how much labelled ligand stays bound in the presence of the test substance.
The target of assay [2] is T1, Kappa-type opioid receptor (Homo sapiens, UniProt P41145). Nature of the assay: biochemical. The assay is classed as cell-based, CHO.
In assay [3] the target is T1, Kappa-type opioid receptor. Type of assay: functional, cell-based, CHO.
The species named for the next assay is Cavia porcellus. Nature of the assay: Ratio of Ki for delta opioid receptor to Ki for kappa opioid receptor in guinea pig brain.

`Oc1ccc2c3c1O[C@H]1[C@@H](O)CC[C@@]4(O)[C@@H](C2)N(CC2CC2)CC[C@]314`: the results for the inhibition constant Ki (on Mu-type opioid receptor; in assay [1]; in assay [2]) were 210 pM, 56000 pM and 560 pM, respectively.

`CC1C2Cc3ccc(C(N)=O)cc3C1(C)CCN2CC1CC1` (stereo not given) came in with an inhibition constant Ki in assay [2] of 60 pM. Also, in assay [3], the EC50 worked out at 2400 pM.

As for `CC1C2C(=O)c3ccc(C(N)=O)cc3C1(C)CCN2CC1CC1` (stereo not given), in the assay listed under Cavia porcellus, the Ratio Ki was 11.

The compound `CN(C)C[C@H]1CCCC[C@]1(O)c1cccc(O)c1` (relative stereo) [O-DESMETHYL TRAMADOL] registered a Ki on Mu-type opioid receptor of 8600 pM.

As to `Oc1ccc2c3c1O[C@H]1[C@H](O)CC[C@@]4(O)[C@@H](C2)N(CC2CC2)CC[C@]314`, the Ki turned out to be 190 pM at Mu-type opioid receptor, 53000 pM in assay [1] and 480 pM in assay [2].

Usually Ki stands for a dissociation constant, usually derived from enzyme kinetics or from competition with a known ligand. Read a high Ki as weaker binding. The EC50 is the concentration that produces a half-maximal response. A lower EC50 goes with higher potency in that assay.
